Measured affinities in a library of Ab-14 heavy chain variants

Source: Engelhart et al. 2022 (doi:10.1038/s41597-022-01779-4), MIT Lincoln Laboratory and A-Alpha Bio; data file from the FLAb repository.

Binding partner: SARS-CoV-2 spike HR2 peptide, sequence PDVDLGDISGINAS.

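The starting antibody came from a phage panning campaign against this peptide. Variants in AAYL49 differ from the parent at up to three CDR positions; double and triple changes were sampled at random. Affinity was read by AlphaSeq, a pooled yeast mating assay with surface-displayed partners. Mating (16 h, 30 °C) was followed by selection of diploids and sequencing of their barcodes. Each replicate has its own calibration line, from reference interactions of the BCL2 family. There are three technical replicates.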

The variants keep the light chain, the linker and the frameworks of Ab-14 (scFv order VH, three GGGGS repeats, VL).
VH: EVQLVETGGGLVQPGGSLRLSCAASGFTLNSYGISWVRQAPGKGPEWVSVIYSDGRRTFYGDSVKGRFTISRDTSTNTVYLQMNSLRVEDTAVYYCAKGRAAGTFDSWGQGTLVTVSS
VL: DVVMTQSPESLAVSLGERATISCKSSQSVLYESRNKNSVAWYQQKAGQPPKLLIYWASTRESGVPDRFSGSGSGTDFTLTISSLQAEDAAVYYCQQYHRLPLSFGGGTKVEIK

Positions count from residue 1 of the parent VH; S31K puts K in place of S. Numbers give log10(Kd / nM), so 0 is 1 nM and 3 is 1 µM. Smaller is tighter. Replicates are averaged; those with no signal do not enter the mean. An entry "ND" has no value in the source: the pair was not observed among the diploids in that replicate. This suggests poor binding but is not conclusive. Nonspecific signal, from three strains lacking the peptide, appeared in 15% of pairings of library AAYL49, centred on 4.06 (5% of these signals below 2.83); values are not corrected for it. The control count says in how many pairings with the empty strains this scFv gave a signal, with their mean in brackets.

| # | changes | log10 Kd (nM) by replicate | mean, log10 nM | control signals |
|---|---|---|---|---|
| 1 | S31K+D54K+D62R | ND ND ND | ND | 1 of 9 (3.21) |
| 2 | F27C+Y52A+R100S | 2.14 1.97 2.85 | 2.32 | 2 of 9 (4.65) |
| 3 | G26R+I51T+G55R | ND ND ND | ND | 0 of 9 |
| 4 | R57I+T104N | 5.57 4.28 ND | 4.93 | 3 of 9 (3.96) |
| 5 | R56K+T58G+R100W | 5.08 ND ND | 5.08 | 1 of 9 (3.36) |
| 6 | T28L+G55N+S107N | ND ND ND | ND | 0 of 9 |
| 7 | G26K+G55V+G99H | 4.15 4.04 ND | 4.10 | 2 of 9 (4.13) |
| 8 | S53G+A101R+D106S | 3.35 3.09 ND | 3.22 | 4 of 9 (4.11) |
| 9 | S35G+S53N+T58R | ND ND ND | ND | 1 of 9 (4.01) |
| 10 | I34M+Y52P+R100W | ND ND 3.74 | 3.74 | 1 of 9 (4.15) |
| 11 | V50I+D54R+F105V | ND ND ND | ND | 1 of 9 (5.20) |
| 12 | I34P+T104L | ND ND ND | ND | 3 of 9 (3.48) |
| 13 | F27Q+N30Y+T58G | ND ND ND | ND | 0 of 9 |
| 14 | G61S+A102C | -0.06 0.23 0.31 | 0.16 | 5 of 9 (5.02) |
| 15 | Y60F+D62F+T104W | 4.15 ND ND | 4.15 | 2 of 9 (3.69) |
| 16 | G33M+A102I+G103L | ND ND ND | ND | 0 of 9 |
| 17 | N30G+Y60W+F105T | ND 4.92 3.14 | 4.03 | 3 of 9 (4.12) |
| 18 | S35P+S53G+R57T | 4.09 ND ND | 4.09 | 0 of 9 |
| 19 | T28L+Y32L+G99A | 1.84 1.78 2.20 | 1.94 | 1 of 9 (3.82) |
| 20 | G26K+V64N+G103C | ND ND ND | ND | 1 of 9 (2.74) |
| 21 | I34L+S35C+G103V | ND 3.34 ND | 3.34 | 0 of 9 |
| 22 | F59V+G99Y+D106F | 4.81 ND ND | 4.81 | 0 of 9 |
| 23 | A102D+T104D+D106K | ND ND ND | ND | 0 of 9 |
| 24 | D62R+D106Q+S107G | 6.27 3.79 5.08 | 5.05 | 4 of 9 (4.38) |
| 25 | D54L+F59K+G99H | ND ND ND | ND | 1 of 9 (2.64) |
| 26 | G26P+R100Q+D106P | ND ND ND | ND | 0 of 9 |
| 27 | I51S+G55P+D62F | ND ND ND | ND | 2 of 9 (3.06) |
| 28 | N30R+I34L+F59Y | ND ND ND | ND | 0 of 9 |
| 29 | S31Q+I34Q+T104Y | ND ND ND | ND | 1 of 9 (3.21) |
| 30 | T58R+V64P | ND ND ND | ND | 0 of 9 |
| 31 | G33L+F59C+K65G | 4.12 ND ND | 4.12 | 3 of 9 (4.10) |
| 32 | T28E+S53P+R100T | 0.96 1.11 1.16 | 1.07 | 3 of 9 (3.75) |
| 33 | N30T+R56E+F59R | 2.13 2.07 2.18 | 2.13 | 1 of 9 (4.62) |
| 34 | I34P+G55K+D106W | ND ND ND | ND | 1 of 9 (3.77) |
| 35 | N30A+D54L+K65R | ND ND ND | ND | 0 of 9 |
| 36 | T28G | 1.42 1.27 1.17 | 1.29 | 0 of 9 |
| 37 | F27N+S31R+I34L | ND ND 4.69 | 4.69 | 1 of 9 (3.80) |
| 38 | Y32K+S63M+D106H | ND ND ND | ND | 0 of 9 |
| 39 | F27T+S31I+T104I | ND ND ND | ND | 0 of 9 |
| 40 | G55E+T58G | ND ND ND | ND | 0 of 9 |
| 41 | N30C+F105M | 3.70 2.70 3.67 | 3.36 | 4 of 9 (3.06) |
| 42 | S53M+D54H+R57D | ND 4.97 ND | 4.97 | 0 of 9 |
| 43 | S31N+V50T+Y60M | 4.98 ND 3.77 | 4.38 | 3 of 9 (3.46) |
| 44 | S63Q+T104G+S107F | ND ND ND | ND | 0 of 9 |
| 45 | L29R+I51H+G61P | ND ND 4.08 | 4.08 | 0 of 9 |
| 46 | Y52A+D54S+D62V | ND ND ND | ND | 1 of 9 (5.31) |
| 47 | S53G+T58I+V64I | ND 2.44 ND | 2.44 | 0 of 9 |
| 48 | V50E+I51C+S107T | ND ND ND | ND | 1 of 9 (5.48) |

For reference, the parent read 0.65 as the reference entry and 4.11 (one replicate of three) as a member of this library.